The experiment has as its target three-domain Src (SH3-SH2-SH1, residues 83-533), C-tail unphosphorylated (chicken, UniProt P00523, in part). The experiment can be described thus: cell-based or functional assay.

B1: β-arrestin 1, wild type (residues 2-418) (natural protein, rat, UniProt P29066 2-418, looked up)
chain: GDKGTRVFKKASPNGKLTVYLGKRDFVDHIDLVDPVDGVVLVDPEYLKERRVYVTLTCAFRYGREDLDVLGLTFRKDLFVANVQSFPPAPEDKKPLTRLQERLIKKLGEHAYPFTFEIPPNLPCSVTLQPGPEDTGKACGVDYEVKAFCAENLEEKIHKRNSVRLVIRKVQYAPERPGPQPTAETTRQFLMSDKPLHLEASLDKEIYYHGEPISVNVHVTNNTNKTVKKIKISVRQYADICLFNTAQYKCPVAMEEADDTVAPSSTFCKVYTLTPFLANNREKRGLALDGKLKHEDTNLASSTLLREGANREILGIIVSYKVKVKLVVSRGGLLGDLASSDVAVELPFTLMHPKPKEEPPHREVPESETPVDTNLIELDTNDDDIVFEDFARQRLKGMKDDKDEEDDGTGSPHLNNR
Consider B1, for which the “initial velocity (V0) of optimal Src peptide phosphorylation by Src (20 nM) with βarr1 (100 nM) activated by V2Rpp and Fab30, against Src alone” value was ~2 fold.
